Target: T1, apo-transferrin (human, UniProt P02787 20-698)
T1 construct: transferrin (serotransferrin), human, iron-free state; Several paragraphs and legends say only 'transferrin' where the text says apo-transferrin for the same panels; rows told of 'transferrin' alone are tied to this molecule; also called Tf; TRF; source: bought: Sigma (purity greater than 98%)
Experiment: SPR; BIAcore 2000; apo-transferrin or holo-transferrin immobilised on a CM5 chip (~2000 RU); serial concentrations of thrombin, FXIIa, fibrinogen, AT, prothrombin or FXII in Tris–HCl buffer (20 mM, pH 7.4) at 10 μL/min

koff: 0.0036 s⁻¹ | kon: 470000 M⁻¹ s⁻¹
Substance: human α-thrombin (from UniProt P00734 364-622) (enzyme)

From PMC7015052, “Transferrin plays a central role in coagulation balance by interacting with clotting factors” (Cell Research, 2019)
